Experimental data reported in patent US20230151014A1 (Repare Therapeutics Inc., priority 2020, published 2023).
Where a name gives a salt, the structure may show the parent alone. Read-outs that look alike come from different tables or passages of the source.

Molecular target: T1, recombinant human Myt1 (Homo sapiens, UniProt Q99640)
T1 construct: full length PKMYT1 recombinant human protein expressed in insect cells
T1 sequence (Q99640 1-499): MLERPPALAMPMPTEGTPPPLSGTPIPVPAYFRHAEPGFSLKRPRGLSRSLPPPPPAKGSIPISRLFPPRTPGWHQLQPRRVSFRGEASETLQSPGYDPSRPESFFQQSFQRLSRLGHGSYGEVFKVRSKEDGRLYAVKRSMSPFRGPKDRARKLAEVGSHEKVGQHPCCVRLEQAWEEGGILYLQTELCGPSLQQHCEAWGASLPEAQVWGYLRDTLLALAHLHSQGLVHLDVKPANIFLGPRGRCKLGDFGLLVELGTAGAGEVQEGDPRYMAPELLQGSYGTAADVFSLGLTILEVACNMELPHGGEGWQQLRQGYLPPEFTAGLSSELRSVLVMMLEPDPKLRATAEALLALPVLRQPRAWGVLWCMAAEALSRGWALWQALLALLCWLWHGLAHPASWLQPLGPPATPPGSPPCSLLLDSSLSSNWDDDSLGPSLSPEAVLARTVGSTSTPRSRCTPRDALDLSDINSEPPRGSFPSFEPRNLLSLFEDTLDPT
Assay: Myt1 enzymatic assay (ADP-Glo kinase assay, IC50 and % max inhibition)
Type: biochemical

IC50 (recombinant human Myt1 18 nM, ATP 10 μM, ADP-Glo, read-out: Myt1 IC50)	Compound	IC50
2470 nM	Cc1ccc(O)cc1-n1c(N)c(C(N)=O)c2nc(-c3ncccn3)ccc21 [Compound 23, 2-amino-1-(5-hydroxy-2-methyl-phenyl)-5-pyrimidin-2-yl-pyrrolo[3,2-b]pyridine-3-carboxamide]	
	Cc1ccc(O)cc1-n1c(N)c(C(N)=O)c2nc(C3=CCCNC3)ccc21 [Compound 27, 2-amino-1-(5-hydroxy-2-methyl-phenyl)-5-(1,2,3,6-tetrahydropyridin-5-yl)pyrrolo[3,2-b]pyridine-3-carboxamide HCl salt]	604 nM
